Target: rat collagenase-3 receptor (170 kDa protein) of UMR 106-01 rat osteosarcoma cells and other rat cells (rat)
Test: ^125I-labeled ligand at 8 nM on UMR cells, triplicate wells

## human collagenase-3 (human MMP-13) (from UniProt P45452 20-471) (enzyme)
  Specific binding (fmol/2.6 × 10^5 cells): 35.3
